Reference: PMC12965331 (Biochemistry, 2025)

Columns and labels:
NSP14 MTase = NSP14 MTase (Severe acute respiratory syndrome coronavirus 2, UniProt P0DTD1); details: for effect of detergent concentration on potency, NSP14 MTase: 0.1% vs 0.01% Tween-20 or no detergent; for NSP14 MTase activity inhibition: dose response, highest dose tested 40 μM
[1] = molecular target: NSP10–14 fusion (NSP14 ExoN) (Severe acute respiratory syndrome coronavirus 2, UniProt P0DTD1)
[2] = AUC of dose response, structure cluster analysis

Structure (SMILES) | effect of detergent concentration on potency, NSP14 MTase (NSP14 MTase) | NSP14 MTase activity inhibition (NSP14 MTase) | activity against MTase (NSP14 MTase; [2]) | effect of detergent concentration on potency, NSP10–14 activity assay ([1]; 0.1% vs 0.01% Tween-20) | activity against ExoN [1, 2]
O=c1c2ccccc2[se]n1-c1ccccc1 [Ebselen] | increased potency with higher detergent concentrations | inhibited |  |  | 
CCC(Sc1nnc2c(n1)[nH]c1ccccc12)C(=O)N1c2ccccc2Sc2ccccc21 (stereo not drawn) [Inauzhin] |  | outside our assay window |  |  | 
Nc1nc(OCc2cc(Br)cs2)c2[nH]cnc2n1 [Lomeguetrib, Lomeguatrib] |  | outside our assay window |  |  | 
CC(=O)N1CCN(c2ccc(C(=O)N3CCN(Cc4ccccc4)CC3)nn2)C(=O)C1 [NCGC00537446] | ruled out any detergent-driven inhibition mechanism |  | high activity | ruled out any detergent-driven inhibition mechanism | high activity
Nc1ncnc2c1ncn2[C@@H]1O[C@H](C[C@@H](N)CC[C@H](N)C(=O)O)[C@@H](O)[C@H]1O [Sinefungin] | increased potency with higher detergent concentrations |  |  |  | 
